Measured values from patent publication US20140155420A1, “INHIBITORS OF EYA2” (The Regents of the University of Colorado, a body corporate, priority 2011, published 2014).
Read-outs that look alike come from different tables or passages of the source.

Molecular target: T1, Eya2 ED (Homo sapiens, UniProt O00167)
T1 sequence (O00167 253-538): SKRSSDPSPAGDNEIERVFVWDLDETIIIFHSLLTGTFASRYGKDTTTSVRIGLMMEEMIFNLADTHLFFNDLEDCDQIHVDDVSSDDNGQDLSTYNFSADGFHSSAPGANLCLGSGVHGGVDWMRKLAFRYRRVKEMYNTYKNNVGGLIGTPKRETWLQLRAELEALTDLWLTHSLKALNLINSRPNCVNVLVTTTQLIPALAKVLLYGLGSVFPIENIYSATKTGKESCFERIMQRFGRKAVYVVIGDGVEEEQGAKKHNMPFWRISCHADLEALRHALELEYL
Details: for IC50: read-out: IC50, inhibition of Eya2 ED phosphatase activity

Row | Inhibition of Eya2 ED phosphatase activity (OMFP substrate) | IC50 (OMFP substrate) | SMILES | IC50
1 | inhibited | 65 µM | O=C(O)CN(CCN(CC(=O)O)CC(=O)O)CC(=O)O [EDTA] | –
2 | – | – | O=C(O)CN(CCOCCOCCN(CC(=O)O)CC(=O)O)CC(=O)O [EGTA] | 65 µM
